Earlier results as cited in patent US20090017108A1, “Liposome compositions for treatment of hepatitis C” (priority 2007, published 2009).

Test system: hepatitis C
Conditions: six months after treatment was discontinued; 24 weeks of treatment; interferon alpha-2b 3 million units three times a week, oral ribavirin 1.0 g to 1.2 g daily or placebo

In the case of interferon alpha-2b, the “subjects with undetectable serum viral RNA” value is given as 4.7%.
